# Assay results: patent publication US20040101521A1, “Iron sequestration or elimination to reduce neurodegeneration or Parkinsons disease progression” (The Buck Institute for Research on Aging, priority 2002, published 2004)
# What was measured:
# Type in all cases: in vivo, mouse
# [1] = Spectrophotometric analysis of bioavailable ferrous iron in SN tissue
# Experimental: Levels of ferrous iron available to bind ferrozine were determined in dissected SN tissue spectrophotometrically at 578 nm as previously described (Agrawal et al. (2001) Toxicology 168: 223-230).
# [2] = Open field analysis of spontaneous motor activity; settings: ferritin animals, n=6-8
# Experimental: Ferritin transgenics vs. wild type littermates and CQ-fed vs. saline-fed animals used for open field behavioral studies were 2-5 months of age. 6-8 mice in each category were tested. Behavioral parameters were monitored in a Coulbourn Instrument Tru Scan activity monitor. Motor activities were recorded every 100 ms for a 10 minute period. Tru Scan 99 software was used to generate experimental protocols and to acquire and store the data. The data was exported to EXCEL and analyzed via one way ANOVA.
# [3] = system: MPTP-induced oxidative stress; experiment: ROS by DCF fluorescence in SN after MPTP; settings: transgenic animals, MPTP 30 mg/kg i.p., 8 hrs, n=8
# Experimental: Animals were i.p. injected with either 30 mg/kg body weight MPTP or saline. Eight hours following injection, synaptosomal fractions were prepared from the SN and used for DCF analysis (Ali et al. (1992) Neurotoxicol,. 13: 637-648). Fluorescence was monitored on a Turner spectrofluorometer with an excitation wavelength of 448 mm and an emission wave length of 525 nm. Protein was normalized by the Bradford method.
# MPTP-induced toxicity = experiment: Striatal dopamine, DOPAC and HVA by HPLC after MPTP; settings: ferritin transgenics, n=5
# Experimental: (§1) Animals were injected with either 15 mg/kg body weight MPTP or saline every 2 hrs, 4 doses. Dopamine, DOPAC, and HVA or MPP+ from dissected striata were analyzed by I-PLC using a 5 micrometer C-18 reverse phase column and precolumn (Brownlee Labs) followed by electrochemical detection with a glassy carbon electrode (Klivenyi et al. (2000) J. Neurosci. 20: 1-7).
# [4] = system: MPTP-induced dopaminergic SN cell loss; experiment: Stereological TH+ SN neuron counts after MPTP; settings: ferritin transgenics, n=7
# Experimental: Neuronal counts were performed on TH+ positive SN neurons using the unbiased dissector method (West (1993) Neurobiol. Aging 14: 275-285). Fixed coronal brain sections (40 μm) were immunostained with TH antibody (1:500 dilution, Chemicon), coverslipped in aqueous medium and TH+ cells counted from a total of 15-20 sections in each field per brain (i.e. every second section) at a magnification of 100× using the optical fractionator approach.
# as §1
# [5] = Ferric iron histochemistry (Perls) in SN; settings: transgenic vs. wild-type
# Experimental: Coronal sections from brains of adult animals were subjected to formalin fixation and Perls staining using potassium ferrocyanide as previously described (Hill and Switzer (1984) Neurosci. 11: 595-603). The percentage area covered by ferric-ferrocyanine product was assessed by Camera Luminace Drawing.
# [6] = system: MPTP-induced oxidative stress; experiment: SN GSH levels after MPTP; settings: ferritin transgenics, n=8
# Experimental: Following MPTP or saline injection, GSH levels were measured in the SN by the method of Griffith (Griffith (1980) Anal. Biochem. 106; 207-212).
# [7] = SN ferritin-bound ferric iron by MRI in pTH-ferritin transgenics; settings: n=4
# Description: Mice were housed according to standard animal care protocols, fed ad libitum, kept on a 12-hr light/dark cycle and maintained in a pathogen-free environment in the Buck Institute Vivarium. Animals used for studies were young adults (2-6 months of age). Ferritin transgenic mice were generated via injection of an 8.3 kb Hind III DNA fragment containing 4.8 kb of 5′ upstream sequences from the rat TH gene (Banjeree et al. (1992) J. Neurosci. 12:4460-4467), 2.6 kb of human genomic ferritin DNA encompassing the 4 coding region exons (Hentze et al., 1986), and 3′ SV40 splice and poly-adenylation sequences into fertilized B6D2 mouse embryos to create pTH-ferretin transgenic founder animals. For CQ studies, C57B1 mice were obtained from Jackson Labs and randomized for therapy trials. CQ was suspended in 0.05% carboxymethylcellulose (Sigma) and delivered via oral gavage at a daily dosage of 30 mg/kg as previously described for a period of 8 weeks (Cherny et al. (2001) Neuron 30: 665-676); controls received vehicle alone.
# MRI studies were performed using a Bruker AMX500 11.7 tesla MRI system as previously described (Gilissen et al. (1998) Am. J. Primatol. 45: 291-299). Brains were fixed as described above and MRI performed in the coronal plane. […]
substance,measurement,setting,value
"ferritin: human ferritin heavy subunit, iron-binding protein, transgenically expressed in dopaminergic SN neurons of mice under rat TH promoter",Bioavailable SN ferrous iron level,"[1]; Tg, n=4",2.7±0.13 μg/g SN tissue
same,Decrease in bioavailable SN ferrous iron levels,[1]; ferritin transgenic SN vs. wild-type,22%±9.8
same,Adverse behavioral effects in 12 motor activity assays (open field),[2],No adverse behavioral effects
same,ROS levels in SN after MPTP,[3],95±4.0%
same,Striatal DA,MPTP-induced toxicity; MPTP-treated,95.0±0.8 ng/mg protein
same,Striatal DOPAC,MPTP-induced toxicity; MPTP-treated,7.0±01.0 ng/mg protein
same,Striatal HVA,MPTP-induced toxicity; MPTP-treated,9.0±0.7 ng/mg protein
same,Striatal DA,MPTP-induced toxicity; saline-treated,105±3.0 ng/mg protein
same,Striatal DOPAC,MPTP-induced toxicity; saline-treated,10.0±0.54 ng/mg protein
same,Striatal HVA,MPTP-induced toxicity; saline-treated,10.5±0.6 ng/mg protein
same,TH+ SN cell numbers,"[4]; MPTP-treated, 7 days","10,500±700"
same,TH+ SN cell numbers,[4]; saline-treated,"11,100±600"
same,Increase in numbers of Perls-positive SN cells,[5],22.4%±4.7
same,Change in SN GSH after MPTP,[6]; 2 hrs,+1.0±0.5%
same,Change in SN GSH after MPTP,[6]; 8 hrs,+0.5±0.3%
same,"Increase in MRI signal intensity, transgenic vs. wild-type",[7],33.7%±8.5
